# Measurements published in paper PMC6858373 (Scientific Reports, 2019).
# System: Clone V cells
# Settings: human
substance,measurement,value
Plicamycin,Toxicity Assay % Fluor (CTB cell viability fluorescence),115.83%
same,Toxicity Assay Z-score (CTB cell viability),2.21
